Values quoted from earlier work in patent publication US5023358A, “Vanadyl organo-mineral compound, method for obtaining such a compound, pharmaceutical composition containing this organo-mineral compound” (Panmedica S.A., priority 1987, dated 1991).

Conditions: oral; cited from earlier work

sodium vanadate
digestive toxicity: presents a digestive toxicity
